Assay results taken from ChEMBL document CHEMBL1151884, “Nuclease resistant methylphosphonate-DNA/LNA chimeric oligonucleotides” (2009).

Test: Stability assessed as degradation in presence of snake venom phosphodiesterase

Question: Which Stability does the source give for `Cc1cn([C@@H]2O[C@@]3(COP(=O)(O)O[C@H]4C[C@H](n5cnc6c(N)ncnc65)O[C@@H]4COP(=O)(O)O[C@H]4C[C@H](n5cnc6c(=O)[nH]c(N)nc65)O[C@@H]4COP(=O)(O)O[C@H]4[C@H]5OC[C@]4(COP(=O)(O)O[C@H]4C[C@H](n6cnc7c(=O)[nH]c(N)nc76)O[C@@H]4CO)O[C@H]5n4cc(C)c(=O)[nH]c4=O)CO[C@@H]2[C@@H]3OP(=O)(O)OC[C@H]2O[C@@H](n3cnc4c(N)ncnc43)C[C@@H]2OP(=O)(O)OC[C@@]23CO[C@@H]([C@H](n4cc(C)c(=O)[nH]c4=O)O2)[C@@H]3OP(=O)(O)OC[C@H]2O[C@@H](n3cnc4c(=O)[nH]c(N)nc43)C[C@@H]2OP(=O)(O)OC[C@H]2O[C@@H](n3ccc(N)nc3=O)C[C@@H]2O)c(=O)[nH]c1=O` here?
Answer: Stable

Question: With `Cc1cn([C@@H]2O[C@@]3(COP(C)(=O)O[C@H]4C[C@H](n5cnc6c(N)ncnc65)O[C@@H]4COP(=O)(O)O[C@H]4[C@H]5OC[C@]4(COP(=O)(O)O[C@H]4C[C@H](n6cnc7c(N)ncnc76)O[C@@H]4COP(C)(=O)O[C@H]4C[C@H](n6cnc7c(=O)[nH]c(N)nc76)O[C@@H]4COP(=O)(O)O[C@H]4[C@H]6OC[C@]4(COP(=O)(O)O[C@H]4C[C@H](n7cnc8c(=O)[nH]c(N)nc87)O[C@@H]4CO)O[C@H]6n4cc(C)c(=O)[nH]c4=O)O[C@H]5n4cc(C)c(=O)[nH]c4=O)CO[C@@H]2[C@@H]3OP(=O)(O)OC[C@H]2O[C@@H](n3cnc4c(=O)[nH]c(N)nc43)C[C@@H]2OP(=O)(O)OC[C@H]2O[C@@H](n3ccc(N)nc3=O)C[C@@H]2O)c(=O)[nH]c1=O` (stereo partly specified) as the compound, how does the Stability read?
Answer: Stable

Question: With `Cc1cn([C@H]2C[C@H](OP(=O)(O)OC[C@H]3O[C@@H](n4cnc5c(=O)[nH]c(N)nc54)C[C@@H]3OP(=O)(O)OC[C@H]3O[C@@H](n4ccc(N)nc4=O)C[C@@H]3O)[C@@H](COP(C)(=O)O[C@H]3C[C@H](n4cnc5c(N)ncnc54)O[C@@H]3COP(=O)(O)O[C@H]3C[C@H](n4cc(C)c(=O)[nH]c4=O)O[C@@H]3COP(=O)(O)O[C@H]3C[C@H](n4cnc5c(N)ncnc54)O[C@@H]3COP(C)(=O)O[C@H]3C[C@H](n4cnc5c(=O)[nH]c(N)nc54)O[C@@H]3COP(=O)(O)O[C@H]3C[C@H](n4cc(C)c(=O)[nH]c4=O)O[C@@H]3COP(=O)(O)O[C@H]3C[C@H](n4cnc5c(=O)[nH]c(N)nc54)O[C@@H]3CO)O2)c(=O)[nH]c1=O` (stereo partly specified) as the compound, how does the Stability read?
Answer: Stable

Question: With `Cc1cn([C@H]2C[C@H](OP(=O)(O)OC[C@H]3O[C@@H](n4cnc5c(=O)[nH]c(N)nc54)C[C@@H]3OP(=O)(O)OC[C@H]3O[C@@H](n4ccc(N)nc4=O)C[C@@H]3O)[C@@H](COP(=O)(O)O[C@H]3C[C@H](n4cnc5c(N)ncnc54)O[C@@H]3COP(=O)(O)O[C@H]3C[C@H](n4cc(C)c(=O)[nH]c4=O)O[C@@H]3COP(=O)(O)O[C@H]3C[C@H](n4cnc5c(N)ncnc54)O[C@@H]3COP(=O)(O)O[C@H]3C[C@H](n4cnc5c(=O)[nH]c(N)nc54)O[C@@H]3COP(=O)(O)O[C@H]3C[C@H](n4cc(C)c(=O)[nH]c4=O)O[C@@H]3COP(=O)(O)O[C@H]3C[C@H](n4cnc5c(=O)[nH]c(N)nc54)O[C@@H]3CO)O2)c(=O)[nH]c1=O` as the compound, how does the Stability read?
Answer: Stable

Question: For `Cc1cn([C@H]2C[C@H](OP(=O)(O)OC[C@H]3O[C@@H](n4cnc5c(N)ncnc54)C[C@@H]3OP(C)(=O)OC[C@H]3O[C@@H](n4cc(C)c(=O)[nH]c4=O)C[C@@H]3OP(=O)(O)OC[C@H]3O[C@@H](n4cnc5c(=O)[nH]c(N)nc54)C[C@@H]3OP(C)(=O)OC[C@H]3O[C@@H](n4ccc(N)nc4=O)C[C@@H]3O)[C@@H](COP(C)(=O)O[C@H]3C[C@H](n4cnc5c(N)ncnc54)O[C@@H]3COP(C)(=O)O[C@H]3C[C@H](n4cnc5c(=O)[nH]c(N)nc54)O[C@@H]3COP(=O)(O)O[C@H]3C[C@H](n4cc(C)c(=O)[nH]c4=O)O[C@@H]3COP(C)(=O)O[C@H]3C[C@H](n4cnc5c(=O)[nH]c(N)nc54)O[C@@H]3CO)O2)c(=O)[nH]c1=O` (stereo partly specified), which Stability is on record?
Answer: Stable

Question: Which Stability does the source give for `Cc1cn([C@@H]2O[C@@]3(COP(C)(=O)O[C@H]4C[C@H](n5cnc6c(N)ncnc65)O[C@@H]4COP(C)(=O)O[C@H]4C[C@H](n5cnc6c(=O)[nH]c(N)nc65)O[C@@H]4COP(=O)(O)O[C@H]4[C@H]5OC[C@]4(COP(C)(=O)O[C@H]4C[C@H](n6cnc7c(=O)[nH]c(N)nc76)O[C@@H]4CO)O[C@H]5n4cc(C)c(=O)[nH]c4=O)CO[C@@H]2[C@@H]3OP(=O)(O)OC[C@H]2O[C@@H](n3cnc4c(N)ncnc43)C[C@@H]2OP(C)(=O)OC[C@@]23CO[C@@H]([C@H](n4cc(C)c(=O)[nH]c4=O)O2)[C@@H]3OP(=O)(O)OC[C@H]2O[C@@H](n3cnc4c(=O)[nH]c(N)nc43)C[C@@H]2OP(C)(=O)OC[C@H]2O[C@@H](n3ccc(N)nc3=O)C[C@@H]2O)c(=O)[nH]c1=O` (stereo partly specified) here?
Answer: Stable
